Biological target: T1, His-CaM(Ca^+2) (Mus musculus, UniProt P0DP26)
T1 construct: purchased Israel Structural Proteomics Center (Weizmann Institute of Science)
Assay: Surface plasmon resonance on immobilized His-CaM with Ca2+
Assay type: binding
Conditions: read-out: Dissociation constant; SPR, Table 2, CaCl2 0.3 mM
Protocol: SPR experiments were performed to assess the dissociation constant between His-CaM and the compound 1 in the presence/absence of Ca^2+ ions and other ligands. His-CaM was diluted in 180 μL PBS buffer (4.1 mM, pH=7.3) and 20 μL sodium acetate (1 M, pH=3) to reach a final concentration of 20 μg/mL and then immobilized on a Biacore sensor chip CM5 through EDC/NHS chemistry. Flow cells were activated for 5 min by injecting 50 μL mixture of 50 mM NHS:200 mM EDC. Then 50 μL of His-CaM (20 μg/mL) was injected at a rate of 10 μL/min followed by injection of ethanolamine (1 M) to block the remaining surface-activated groups. Various analytes (Table 1) were injected in different concentrations, ranging from 0.1-2 μM for (20 μL/min, 80 μL injection with a delay of 180 s wash) (Table 1). Between consecutive analyte injections, the surface was regenerated with 2 mM NaOH (20 μL at 10 μL/min) followed by PBS buffer (60 μL at 10 μL/min). Non-derivatized dextran matrix flow cells served as reference cells. For determination of dissociation constants in the presence of M13 or Mastoparan (entries 3 and 4), first 80 μL M13 or Mastoparan (3 μM, 20 μL/min) were injected and after dissociation began 80 μL compound 1 (concentration range of 0.2-2 μM, 20 μL/min) was injected. CaCl2 (0.3 mM) was pre-incubated with the analyte before injections. […]

**Q.** How did the Kd turn out when Mastoparan was run?
**A.** The Kd was 1.2 nM.

— patent US11639929B2, “Universal histidine-tag binding compounds and methods of use thereof as fluorescent probes and sensors” (YEDA RESEARCH AND DEVELOPMENT CO. LTD., priority 2014, dated 2023)
